Yeast mating assay B: variants of the scFv Ab-14

Reference: Li et al. 2023, doi:10.1038/s41467-023-39022-2. File: FLAb, binding data.

Target peptide (SARS-CoV-2 spike, HR2 region): PDVDLGDISGINAS

The variants keep the light chain, the linker and the frameworks of Ab-14 (scFv order VH, the linker GGGGSGGGGSGGGGS, VL).
VH: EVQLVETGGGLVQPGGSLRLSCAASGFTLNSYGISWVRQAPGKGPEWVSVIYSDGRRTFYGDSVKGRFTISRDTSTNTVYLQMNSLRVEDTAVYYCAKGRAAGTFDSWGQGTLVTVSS
VL: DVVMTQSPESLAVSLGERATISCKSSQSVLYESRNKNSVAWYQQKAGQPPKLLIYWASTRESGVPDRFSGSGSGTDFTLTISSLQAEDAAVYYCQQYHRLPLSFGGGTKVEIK

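The variants were designed computationally from a first round of random CDR variants and then made and measured. Several design methods are mixed in this list. Affinity was read by AlphaSeq, a pooled yeast mating assay with surface-displayed partners. Binding brings cells together so that they mate, and sequencing counts the barcode pairs among the diploids. Scores were corrected for input abundance and mapped to Kd with protein pairs of known affinity run in the same pool. Each pool was mated in six replicate cultures.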

Variants are written as CDR1, CDR2 and CDR3 of the heavy chain (limits as in the source). Parent: GFTLNSYGIS, VIYSDGRRTFYGDSVK, GRAAGTFDS. Numbers give log10(Kd / nM), so 0 is 1 nM and 3 is 1 µM. Smaller is tighter. Replicates are averaged; those with no signal do not enter the mean. "nd" marks a missing value. The strain was present, yet no cells mated with the target were sequenced in that replicate, which points to weak or no binding. The parent sequence was in this pool as ten entries: three were never detected, three once, and four in most replicates, with averages from 0.34 to 2.37. The range of this assay differs from that of the first round, and the authors advise against merging the two. The authors' rule: three or more of the six replicates give a measured affinity, fewer mean a poor binder. Nonspecific signal, from three strains lacking the peptide, appeared in 1% of pairings of all heavy chain designs, centred on 2.08 (5% of these signals below 0.84); values are not corrected for it.

Variant GFNLDEYGIS / VIYADGYRRAYAQSVK / GMNSGTGVT gave nd, nd, nd, nd, nd, nd.
Variant GFDLDNEGIS / VIYADGIRTQYQDSVK / GQNVATFDV gave nd, nd, nd, nd, nd, nd.
Variant GFDLNEYGIS / VIYADGKRTAYADDVK / GANAGTFDV gave -0.72, -0.70, -0.85, -0.84, -0.86, -0.59 (mean -0.76).
Variant GFNLDEYGIS / VIYADGKRSHYTDKVK / GTFGDFMMV gave nd, nd, nd, nd, nd, nd.
Variant GFTLNSYGIS / VIYSDGRRTAYGDSVK / GRASATNDL gave nd, nd, nd, nd, nd, nd.
Variant PFDLNSYGIS / VIYSDGRRTFYKDSVK / GQTAGTFDS gave nd, 1.22, nd, nd, nd, 1.37 (mean 1.30).
Variant RFTLNEYGIS / VIYSDGRRTFYVDSVK / GVFAGTFDS gave nd, nd, nd, nd, nd, nd.
Variant GFTLNSYGIS / VIYADGRRTFYGDSVK / GRAAKTFTS gave nd, nd, nd, nd, nd, nd.
Variant GFTLNSYGIS / VIYSDGRRTFYGDSVK / GSAAGTFDS gave 0.95, 1.51, 0.61, 1.69, 1.82, 1.62 (mean 1.37).
Variant GFELNSYGIS / VIYADGRRTFYGDSVK / GKAAGTFDG gave 0.97, 1.09, 0.54, 0.89, 0.61, 0.85 (mean 0.83).
Variant GFNLDEYGIS / VIYADGRRTAYKDTVK / GVRTWQFDL gave nd, nd, nd, nd, nd, nd.
Variant GFDLNEYGIS / VIYADGRRTAYTDSVK / GGAAGTFDL gave -0.23, -0.33, -0.40, -0.57, -0.42, -0.18 (mean -0.36).
Variant GFDLNEYGIS / VIYADGFRTFYTDSVK / GETAGTFDS gave -0.43, -0.23, -0.46, -0.61, -0.92, -0.56 (mean -0.53).
Variant GFTLNEYGIS / VIYSDGRRTFYGDSVK / GAAAGTFDS gave nd, nd, nd, nd, nd, nd.
Variant GYTLNEYGIS / VIYSDGRRTFYGDSVK / GRTAGTFDK gave 1.48, 1.63, nd, 2.14, 1.83, 2.13 (mean 1.84).
Variant GFNLNEYGIS / VIYADGRRTFYADSVK / GEIAGTFDI gave 0.08, -0.05, -0.26, -0.38, -0.19, -0.02 (mean -0.14).
Variant GFDLNEYGIS / VIYADGKRTAYVDSVK / GEVAGTFDI gave -0.27, -0.58, -0.61, -0.66, -0.41, -0.36 (mean -0.48).
Variant GFNLNEYGIS / VIYADGRRKFYADSVK / GNTAGTFDM gave -1.48, -1.39, -1.58, -1.48, -1.32, -1.56 (mean -1.47).
Variant GFTQNSYGIS / VIYADGRRTFYIDSVK / GRAAGTFDS gave nd, nd, nd, nd, nd, nd.

Further variants, results first:

Read-out nd, nd, nd, nd, nd, nd, from GFGLDEYGIS / VIYADGARKAYQNYFK / GGQAGTFVN.
Read-out -0.71, -0.98, -1.25, -1.14, -0.88, -0.93 (mean -0.98), from GFDLNEYGIS / VIYADGVRTFYADSVK / GSEAGTFNM.
Read-out 0.48, 0.46, 0.35, 0.63, 0.21, 0.82 (mean 0.49), from GFDLNSYGIS / VIYSDGRRTFYSDSVK / GWAAGTFDS.
Read-out -0.47, -0.32, -0.16, -0.56, -0.50, -0.43 (mean -0.41), from GFNLDEYGIS / VIYADGRRTFYQDSVK / GEEAGTFDF.
Read-out 0.59, 0.31, 0.49, 0.44, 0.27, 0.72 (mean 0.47), from GFDLNSYGIS / VIYSDGRRTFYEDSVK / GQTAGTFDS.
Read-out nd, nd, nd, nd, nd, nd, from GFTLTSYGIS / VIYSDGRRTFYGDSVK / GRAAGTFDS.
Read-out nd, 0.51, 0.07, -0.12, nd, 0.36 (mean 0.20), from KFDLNSYGIS / VIYSDGRRTFYQDSVK / GKAAGTFDS.
Read-out 1.61, 2.66, nd, 2.89, 1.99, 2.60 (mean 2.35), from GFDLDEEGIS / VIYADGIRTAYQDSVK / GQNVATFNV.
Read-out 1.47, 2.66, 1.16, 0.91, 1.14, 0.91 (mean 1.38), from GKSLEEYGIS / VIYADGQRNAYAETVK / GTNGGVFSY.
Read-out nd, nd, nd, nd, nd, nd, from GFTLNSYGIS / VIYADGRRTFYGDQVK / GRAAGTFIS.
Read-out 0.70, -0.34, 0.90, -0.68, -0.28, 0.82 (mean 0.18), from GFDLNEYGIS / VIYADGRRTFYADSVK / GEYAGTFDV.
Read-out nd, nd, nd, nd, nd, nd, from GFSLNSYGIS / VIYSDGRRTFYSDSVK / GEAGGTFDS.
Read-out nd, nd, nd, nd, nd, nd, from GFTLNEYGIS / VIYSDGQRTFYSDSVK / GRAAGTFTS.
Read-out 1.00, 1.25, 1.50, 1.03, 1.81, 0.86 (mean 1.24), from GFTLNSYGIS / VIYSDGKRTFYADSVK / GHAAGTFDG.
Read-out -0.38, -0.09, -0.10, -0.31, -0.42, -0.22 (mean -0.25), from GFSLNSYGIS / VIYADGRRTFYGDNVK / GEAAGTFKS.
Read-out nd, nd, nd, nd, nd, nd, from GFTLKEYGIS / VIYSDGRRTFYGDSVK / GRAAVTFDV.
Read-out nd, nd, nd, nd, nd, nd, from GFTLNDYGPS / VIYSDGRRTFYGDSVK / GRAALTFIS.
Read-out 0.57, 1.04, 0.28, 0.34, 0.73, 0.61 (mean 0.60), from GFDLNEYGIS / VIYADGVRTAYADNVK / GETAGTFDI.
Read-out 0.38, 0.17, -0.07, -0.01, -0.23, 0.34 (mean 0.09), from GFGLNEYGIS / VIYSDGRRTFYSDSVK / GQPAGTFDS.
Read-out -0.23, -0.02, -0.24, -0.36, -0.73, -0.24 (mean -0.30), from GFDLDEYGIS / VIYADGRRTAYADNVK / GENAGTFDV.

Excerpt, the first 3 entries:

With GFNLDEYGIS / VIYADGYRRAYAQSVK / GMNSGTGVT the result was nd, nd, nd, nd, nd, nd.
With GFDLDNEGIS / VIYADGIRTQYQDSVK / GQNVATFDV the result was nd, nd, nd, nd, nd, nd.
With GFDLNEYGIS / VIYADGKRTAYADDVK / GANAGTFDV the result was -0.72, -0.70, -0.85, -0.84, -0.86, -0.59 (mean -0.76).